From ChEMBL document CHEMBL1124132, “Adenosine receptor agonists: synthesis and biological evaluation of 1-deaza analogues of adenosine derivatives” (J Med Chem, 1988)

The chains behind the UniProt entries cited, without tags or fusion partners. Where a name states a change or a piece, a line headed by the entry shows the natural chain unless it says otherwise.
UniProt P29276: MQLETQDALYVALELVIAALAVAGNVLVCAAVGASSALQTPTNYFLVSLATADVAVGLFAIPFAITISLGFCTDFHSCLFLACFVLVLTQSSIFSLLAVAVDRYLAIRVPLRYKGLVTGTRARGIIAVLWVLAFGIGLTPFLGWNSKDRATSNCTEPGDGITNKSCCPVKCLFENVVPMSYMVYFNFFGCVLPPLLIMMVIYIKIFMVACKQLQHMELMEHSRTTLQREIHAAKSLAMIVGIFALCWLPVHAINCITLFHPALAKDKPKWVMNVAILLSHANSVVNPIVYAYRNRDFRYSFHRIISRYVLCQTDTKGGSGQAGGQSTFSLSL
UniProt P30543: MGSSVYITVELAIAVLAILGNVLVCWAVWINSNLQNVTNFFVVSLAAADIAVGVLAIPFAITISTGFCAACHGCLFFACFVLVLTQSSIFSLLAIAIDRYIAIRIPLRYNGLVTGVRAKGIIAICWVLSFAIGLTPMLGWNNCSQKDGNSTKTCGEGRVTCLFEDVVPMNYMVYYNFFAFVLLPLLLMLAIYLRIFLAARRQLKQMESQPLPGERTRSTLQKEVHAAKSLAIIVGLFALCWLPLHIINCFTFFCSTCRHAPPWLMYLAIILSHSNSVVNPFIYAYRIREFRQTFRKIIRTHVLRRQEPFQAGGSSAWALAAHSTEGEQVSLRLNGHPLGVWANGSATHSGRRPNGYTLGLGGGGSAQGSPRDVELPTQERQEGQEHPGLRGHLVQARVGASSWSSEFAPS

Molecular target: Adenosine A2 receptor (Rattus norvegicus, UniProt P29276+P30543)

- Ki: 730 nM
Compound: C[C@H](Cc1ccccc1)Nc1ncnc2c1ncn2[C@@H]1O[C@H](CO)[C@@H](O)[C@H]1O [(R)-PIA]
